# Source: patent US7348354B2, “Cyclohexylurea compounds” (dated 2008)
# Protein sequences, listed by entry. Tags and fused reporters are not part of them. Lines headed by an entry give the natural chain unless they say otherwise; changes in a name come on top.
# UniProt P35372, whole entry, looked up: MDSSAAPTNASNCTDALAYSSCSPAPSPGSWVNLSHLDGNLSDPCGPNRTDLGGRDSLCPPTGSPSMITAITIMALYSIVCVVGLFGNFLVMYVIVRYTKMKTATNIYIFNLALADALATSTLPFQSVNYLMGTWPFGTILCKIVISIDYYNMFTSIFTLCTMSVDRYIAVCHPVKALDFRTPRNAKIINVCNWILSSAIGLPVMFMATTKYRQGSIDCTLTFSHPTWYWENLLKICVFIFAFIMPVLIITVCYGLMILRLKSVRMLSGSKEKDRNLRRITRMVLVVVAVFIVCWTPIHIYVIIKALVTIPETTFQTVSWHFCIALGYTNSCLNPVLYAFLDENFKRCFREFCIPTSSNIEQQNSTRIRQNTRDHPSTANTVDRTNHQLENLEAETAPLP
# UniProt P41146: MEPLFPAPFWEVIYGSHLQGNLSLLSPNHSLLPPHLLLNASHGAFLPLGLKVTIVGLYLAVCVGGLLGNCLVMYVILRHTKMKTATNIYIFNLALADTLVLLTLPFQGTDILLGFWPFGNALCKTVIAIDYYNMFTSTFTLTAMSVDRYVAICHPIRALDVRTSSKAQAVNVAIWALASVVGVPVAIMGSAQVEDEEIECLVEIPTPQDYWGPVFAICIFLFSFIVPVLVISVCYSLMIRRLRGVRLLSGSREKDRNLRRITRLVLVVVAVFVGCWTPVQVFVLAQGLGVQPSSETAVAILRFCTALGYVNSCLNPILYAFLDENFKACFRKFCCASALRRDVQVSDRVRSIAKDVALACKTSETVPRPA
# Experiments:
# μ-opiate receptor = μ-opiate receptor (Homo sapiens, UniProt P35372); test: Binding to μ-opiate receptor; settings: for Ki: read-out: μ Ki; for μ % inhibition [1 μM]: c=1 μM
# ORL1 receptor = ORL1 receptor (Homo sapiens, UniProt P41146); test: ORL1 receptor binding assay with 3H-nociceptin/Orphanin FQ; settings: membranes of recombinant CHO-ORL1 cells; for Ki: read-out: ORL1 Ki, 0.5 nM 3H-nociceptin/Orphanin FQ; for ORL1 % inhibition [1 μM]: c=1 μM
# mice = test: Analgesic testing by tail flick test in mice; settings: dose 10 mg/kg
smiles,measurement,setting,value
CC(C)CC(NC(=O)Cc1c[nH]c2ccccc12)C(=O)NC1CCC(c2ccccc2)(N(C)C)CC1 (stereo not shown),Ki,μ-opiate receptor,3.2 nM
same,Ki,ORL1 receptor,13 nM
CC(C)CC(NC(=O)Cc1c[nH]c2ccccc12)C(=O)NC1CCC(c2ccccc2)(N(C)C)CC1.Cl (stereo not shown),μ % inhibition [1 μM],μ-opiate receptor,71%
same,"Tail flick (mouse, i.v.) % inhibition (dose [mg/kg])",mice,69% (10)
same,ORL1 % inhibition [1 μM],ORL1 receptor,43%
"CC(NC(=O)Cc1c[nH]c2ccccc12)C(=O)NC1CCC(c2ccccc2)(N(C)C)CC1.Cl (single isomer, unassigned)","Tail flick (mouse, i.v.) % inhibition (dose [mg/kg])",mice,60% (10)
CC(NC(=O)Cc1c[nH]c2ccccc12)C(=O)NC1CCC(c2ccccc2)(N(C)C)CC1.Cl (stereo not shown),μ % inhibition [1 μM],μ-opiate receptor,50%
same,ORL1 % inhibition [1 μM],ORL1 receptor,32%
"CC(NC(=O)Cc1c[nH]c2ccccc12)C(=O)NC1CCC(c2ccccc2)(N(C)C)CC1 (single isomer, unassigned)",Ki,μ-opiate receptor,12.4 nM
same,Ki,ORL1 receptor,31 nM
